Reference: US20110053163A1, “Biomarker” (BIOVATOR TECHNOLOGIES AB, priority 2007, published 2011)

Assays:
Assay type in all cases: cell-based, human
[1] = test system: MonoMac-6 cells; assay: Cytokine Profile Assay (CPA): neopterin production by stimulated MonoMac-6 cells, ELISA; settings: for Neopterin, Mean of mean: with IFN-γ, 6.6 μg/ml, mean of triplicate means over experiments
Protocol: (§1) The instructions of the manufacturers were followed. All these tests are enzyme immunoassays (EIA:s). The principle is that microtiter plate wells are labelled with a cytokine specific capture antibody. If cytokine is present in the samples added to the wells it will be captured to the bottom of the well. To quantify how much cytokine that has been captured a second antibody, labelled with an enzyme is added to the wells. The reaction is thereafter measured as colour developed after addition of a substrate for the enzyme. The values for the test wells are compared with a standard curve obtained by adding a series of known amounts of cytokine. The values obtained for control wells with no substance added are used as background values for cytokine levels.
The myelomonocytic cell line MonoMac-6 (obtained from DSMZ, accession number ACC 124, Prof. H. W. L. Ziegler-Heitbrock, Inst. For Immunology, University of Munich, Munich) was cultured in cell culture flasks (Corning). Cells were cultured in RPMI 1640 medium (Gibco BRL), containing 20 mM HEPES and L-glutamine and supplemented with 10% heat-inactivated foetal bovine serum (Gibco BRL), penicillin (100 U/mL; Sigma-Aldrich), streptomycin (100 μg/mL; Sigma-Aldrich), sodium pyruvate (1.0 mM;Gibco BRL), human insulin (9 μg/mL; Gibco BRL) and non-essential amino acids (Gibco BRL) or cultured in Panserin 411 (Pan Biotech) supplemented with penicillin (100 U/mL), streptomycin (100 μg/mL).
The cells were split approximately 1:3 the day before stimulation. The stimulation procedure was performed in three steps. The first step was pre-dilution of test substances, to double the final concentration, in cell culture medium. Furthermore, Interferon-γ (IFN-γ) (100 U, PreproTech) was added in the cell culture media for 24 or 48 hours during stimulation of cells with test substances. The number of cells was then determined by trypan blue exclusion and the cells were diluted to twice the final test concentration (2×10^6 cells/mL) if not otherwise indicated and 100 μl of cell suspension was added per well in 96 well tissue culture plates (Corning). Finally, a 100 μl of pre-diluted test substance (triplicate cultures) was added to the tissue culture plates. On each cell culture plate a protein purified from birch extract (Bet v1; Phadia) was added as positive control and HSA was added as negative control. The stimulated cells were cultured at 37° C., 5% CO2, for 24 or 48 hours. The cell suspension was transferred to new cell culture plates and stored at −20° C. until analyzed. Thereafter the cell suspension was analyzed for presence of neopterin and IL-10 by ELISA (IBL-Hamburg) following the manufacturers instructions.

[2] = test system: THP-1 cells; assay: CPA: neopterin production by stimulated THP-1 cells; settings: RPMI+10% FCS, 24 hrs, different concentrations
Protocol: as §1, with “levels. […]” for “levels.”
(§2) The cells were split approximately 1:3 the day before stimulation. […] The number of cells was then determined by trypan blue exclusion and the cells were diluted to twice the final test concentration (2×10^6 cells/mL) if not otherwise indicated and 100 μl of cell suspension was added per well in 96 well tissue culture plates (Corning). […] The cell suspension was transferred to new cell culture plates and stored at −20° C. until analyzed. Thereafter the cell suspension was analyzed for presence of neopterin and IL-10 by ELISA (IBL-Hamburg) following the manufacturers instructions.

[3] = test system: MM6-cells; assay: CPA: IL-10 levels of stimulated MM6 cells, ELISA; settings: 25-200 μg/ml; 48 hours; with IFN-γ 100 U/ml
Protocol: as §1, with “levels. […]” for “levels.”
as §2

## HSA: human serum albumin, negative control (Sigma Aldrich, CAS No. 70024-90-7)
[1]; 2.2-20 μg/ml, IFN-γ 100 U/ml, 24 h, 1×10^6 cells per ml, RPMI+10% FCS
  fold increase in neopterin production in the presence of IFN-γ compared to substance only: less than 1 fold
[1]; RPMI+10% FCS, 24 hrs
  Neopterin, Mean of mean: 5.0 nmol/L
[1]; proteins, RPMI+10% FCS, 24 hrs, with IFN-γ 100 U/ml, over the tested concentrations
  neopterin response (in words): did not induce any neopterin production above the background levels
[1]; serum free Panserin 411, 24 hrs
  Neopterin, Mean of mean: 5.4 nmol/L
[1]; serum free Panserin 411, 48 hrs
  Neopterin, Mean of mean: 9.9 nmol/L
[2]
  neopterin response (in words): did not exceed background levels
[3]
  IL-10 levels (in words): did not induce IL-10 above background levels
